A short description of the series: Through life dose consistency of sodium cromoglycate pMDI suspensions (USP <601>, apparatus A). In kind it is physicochemical. As to conditions: nominal ex-valve 0.5 mg/act; HFA-152a. The procedure: In the following examples, dose consistency was determined by in vitro measurement of single actuation dose content at start, middle and end of pMDI unit life in line with U.S. Pharmacopeia (USP)<601>, using a flow rate of 28.3 L/min and apparatus A. Aerodynamic particle size distribution of the pMDI suspension aerosols was measured at start of unit life in line with U.S. Pharmacopeia (USP)<601> using a Next Generation impactor without pre-separator (apparatus 6) and a flow rate of 30 L/min.
Suspensions of micronized sodium cromoglycate in HFA-152a or HFO-1234ze(E) were prepared. A first set of suspensions included no ethanol. A second set of suspensions included 2% ethanol by weight. Each suspension included an amount of sodium cromoglycate to provide a nominal delivered dose (ex-valve) of 0.5 mg/actuation (10.0 mg/mL) or 1.0 mg/actuation (20.0 mg/mL). Two further suspensions including no ethanol were prepared which included an amount of sodium cromoglycate to provide a nominal delivered dose (ex-valve) of 2.0 mg/actuation (40.0 mg/mL). […]
The through-life (TL) dose consistency of each pMDI unit was determined by measuring the mean ex-actuator delivered dose in micrograms of sodium cromoglycate (N=3) at the start of life (SoL), middle of life (MOL) and end of life (EoL) of the unit.

For `O=C(O)c1cc(=O)c2c(OCC(O)COc3cccc4oc(C(=O)O)cc(=O)c34)cccc2o1` [sodium cromoglycate], the “EoL mean delivered dose” value amounted to 307.9 μg/act.

Values taken from patent US20260249027A1, “METERED DOSE INHALERS AND HIGH-DOSE SUSPENSIONS” (Kindeva Drug Delivery L.P., priority 2023, published 2026).
